≈ marks a conversion by molar mass, not a printed value.

Protein sequences, listed by entry. Tags and fused reporters are not part of them. Lines headed by an entry give the natural chain unless they say otherwise; changes in a name come on top.
UniProt P00533, whole entry, looked up: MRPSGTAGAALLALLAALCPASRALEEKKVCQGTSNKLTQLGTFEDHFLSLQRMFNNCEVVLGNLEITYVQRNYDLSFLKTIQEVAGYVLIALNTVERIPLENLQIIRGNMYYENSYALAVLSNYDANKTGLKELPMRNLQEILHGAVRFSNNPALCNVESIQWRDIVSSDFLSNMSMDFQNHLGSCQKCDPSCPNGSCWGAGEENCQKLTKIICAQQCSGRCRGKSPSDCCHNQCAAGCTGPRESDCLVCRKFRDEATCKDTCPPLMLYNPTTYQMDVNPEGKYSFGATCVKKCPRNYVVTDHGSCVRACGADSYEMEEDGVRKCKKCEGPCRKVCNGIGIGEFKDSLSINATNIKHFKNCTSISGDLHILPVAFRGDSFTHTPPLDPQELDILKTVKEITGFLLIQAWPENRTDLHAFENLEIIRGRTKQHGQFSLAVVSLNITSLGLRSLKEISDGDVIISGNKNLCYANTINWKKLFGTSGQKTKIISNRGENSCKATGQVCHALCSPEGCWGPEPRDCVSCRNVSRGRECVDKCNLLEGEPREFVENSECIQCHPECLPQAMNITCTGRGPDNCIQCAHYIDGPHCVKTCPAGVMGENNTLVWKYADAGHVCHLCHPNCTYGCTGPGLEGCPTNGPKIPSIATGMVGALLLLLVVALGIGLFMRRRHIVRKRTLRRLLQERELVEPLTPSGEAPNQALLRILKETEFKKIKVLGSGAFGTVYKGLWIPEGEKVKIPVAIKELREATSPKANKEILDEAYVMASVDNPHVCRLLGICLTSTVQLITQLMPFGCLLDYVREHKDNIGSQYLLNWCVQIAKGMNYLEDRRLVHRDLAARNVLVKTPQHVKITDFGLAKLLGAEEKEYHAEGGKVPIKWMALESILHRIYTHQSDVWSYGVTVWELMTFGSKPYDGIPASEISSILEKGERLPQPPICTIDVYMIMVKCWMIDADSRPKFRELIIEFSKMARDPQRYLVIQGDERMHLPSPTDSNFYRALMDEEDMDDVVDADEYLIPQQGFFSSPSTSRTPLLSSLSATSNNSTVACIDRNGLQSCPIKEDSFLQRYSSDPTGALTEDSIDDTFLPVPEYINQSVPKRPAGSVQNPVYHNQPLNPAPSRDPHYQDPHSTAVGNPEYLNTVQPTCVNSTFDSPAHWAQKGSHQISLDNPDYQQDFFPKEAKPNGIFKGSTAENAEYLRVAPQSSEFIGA
UniProt P42338: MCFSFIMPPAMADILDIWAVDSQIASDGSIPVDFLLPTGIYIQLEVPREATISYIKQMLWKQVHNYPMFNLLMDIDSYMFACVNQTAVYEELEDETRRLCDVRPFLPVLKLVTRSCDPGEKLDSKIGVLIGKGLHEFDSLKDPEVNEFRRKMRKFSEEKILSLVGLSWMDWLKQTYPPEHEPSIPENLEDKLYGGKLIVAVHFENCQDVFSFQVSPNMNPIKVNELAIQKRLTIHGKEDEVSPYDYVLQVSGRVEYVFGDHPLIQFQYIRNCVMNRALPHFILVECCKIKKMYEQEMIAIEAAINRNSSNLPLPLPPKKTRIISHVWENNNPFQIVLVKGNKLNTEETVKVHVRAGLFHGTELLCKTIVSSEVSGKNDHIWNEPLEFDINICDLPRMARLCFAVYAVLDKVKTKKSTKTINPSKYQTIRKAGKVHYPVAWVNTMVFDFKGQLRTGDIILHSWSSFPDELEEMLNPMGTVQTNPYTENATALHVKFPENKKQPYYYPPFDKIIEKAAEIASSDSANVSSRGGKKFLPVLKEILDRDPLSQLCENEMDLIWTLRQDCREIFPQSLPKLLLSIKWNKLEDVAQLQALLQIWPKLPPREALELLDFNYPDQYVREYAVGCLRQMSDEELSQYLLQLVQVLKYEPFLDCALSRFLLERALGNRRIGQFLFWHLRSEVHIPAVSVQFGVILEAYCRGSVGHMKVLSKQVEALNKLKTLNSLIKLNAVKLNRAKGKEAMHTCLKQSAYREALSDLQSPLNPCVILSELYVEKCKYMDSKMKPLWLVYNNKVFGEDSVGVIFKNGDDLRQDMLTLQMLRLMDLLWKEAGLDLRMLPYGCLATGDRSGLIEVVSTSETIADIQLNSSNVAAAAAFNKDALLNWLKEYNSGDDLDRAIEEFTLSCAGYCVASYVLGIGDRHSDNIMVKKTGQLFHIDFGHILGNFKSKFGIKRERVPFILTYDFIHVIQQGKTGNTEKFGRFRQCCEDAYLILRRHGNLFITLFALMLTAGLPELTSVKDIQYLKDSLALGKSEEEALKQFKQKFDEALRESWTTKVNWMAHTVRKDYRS
UniProt P48736, whole entry, looked up, stated change not applied: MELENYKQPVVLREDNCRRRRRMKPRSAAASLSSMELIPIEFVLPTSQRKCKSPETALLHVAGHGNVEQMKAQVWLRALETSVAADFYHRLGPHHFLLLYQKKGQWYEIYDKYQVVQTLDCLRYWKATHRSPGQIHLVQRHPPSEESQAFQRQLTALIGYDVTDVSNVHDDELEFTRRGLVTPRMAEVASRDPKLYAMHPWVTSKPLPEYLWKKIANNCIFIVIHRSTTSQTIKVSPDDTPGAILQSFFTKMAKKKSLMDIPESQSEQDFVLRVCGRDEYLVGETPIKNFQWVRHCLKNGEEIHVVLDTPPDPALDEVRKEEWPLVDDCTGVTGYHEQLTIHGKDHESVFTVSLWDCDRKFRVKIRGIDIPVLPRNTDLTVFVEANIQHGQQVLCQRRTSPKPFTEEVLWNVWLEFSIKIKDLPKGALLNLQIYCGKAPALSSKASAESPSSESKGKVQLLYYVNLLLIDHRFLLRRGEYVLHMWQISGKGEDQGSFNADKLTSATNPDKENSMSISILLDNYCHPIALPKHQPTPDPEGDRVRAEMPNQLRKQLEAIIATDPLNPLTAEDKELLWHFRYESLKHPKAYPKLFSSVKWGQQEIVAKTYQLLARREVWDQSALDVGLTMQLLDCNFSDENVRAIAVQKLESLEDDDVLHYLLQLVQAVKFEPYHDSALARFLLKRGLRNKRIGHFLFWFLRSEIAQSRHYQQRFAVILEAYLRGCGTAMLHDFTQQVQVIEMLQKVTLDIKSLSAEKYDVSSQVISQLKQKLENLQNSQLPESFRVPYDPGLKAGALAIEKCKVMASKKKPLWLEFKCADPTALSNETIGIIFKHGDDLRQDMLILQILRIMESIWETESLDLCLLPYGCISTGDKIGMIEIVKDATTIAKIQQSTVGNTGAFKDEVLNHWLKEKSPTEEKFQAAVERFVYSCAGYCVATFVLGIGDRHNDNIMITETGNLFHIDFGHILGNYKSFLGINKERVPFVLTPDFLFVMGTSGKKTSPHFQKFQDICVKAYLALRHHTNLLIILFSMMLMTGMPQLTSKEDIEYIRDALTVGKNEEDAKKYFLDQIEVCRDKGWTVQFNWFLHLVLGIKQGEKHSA
UniProt P42336, whole entry, looked up: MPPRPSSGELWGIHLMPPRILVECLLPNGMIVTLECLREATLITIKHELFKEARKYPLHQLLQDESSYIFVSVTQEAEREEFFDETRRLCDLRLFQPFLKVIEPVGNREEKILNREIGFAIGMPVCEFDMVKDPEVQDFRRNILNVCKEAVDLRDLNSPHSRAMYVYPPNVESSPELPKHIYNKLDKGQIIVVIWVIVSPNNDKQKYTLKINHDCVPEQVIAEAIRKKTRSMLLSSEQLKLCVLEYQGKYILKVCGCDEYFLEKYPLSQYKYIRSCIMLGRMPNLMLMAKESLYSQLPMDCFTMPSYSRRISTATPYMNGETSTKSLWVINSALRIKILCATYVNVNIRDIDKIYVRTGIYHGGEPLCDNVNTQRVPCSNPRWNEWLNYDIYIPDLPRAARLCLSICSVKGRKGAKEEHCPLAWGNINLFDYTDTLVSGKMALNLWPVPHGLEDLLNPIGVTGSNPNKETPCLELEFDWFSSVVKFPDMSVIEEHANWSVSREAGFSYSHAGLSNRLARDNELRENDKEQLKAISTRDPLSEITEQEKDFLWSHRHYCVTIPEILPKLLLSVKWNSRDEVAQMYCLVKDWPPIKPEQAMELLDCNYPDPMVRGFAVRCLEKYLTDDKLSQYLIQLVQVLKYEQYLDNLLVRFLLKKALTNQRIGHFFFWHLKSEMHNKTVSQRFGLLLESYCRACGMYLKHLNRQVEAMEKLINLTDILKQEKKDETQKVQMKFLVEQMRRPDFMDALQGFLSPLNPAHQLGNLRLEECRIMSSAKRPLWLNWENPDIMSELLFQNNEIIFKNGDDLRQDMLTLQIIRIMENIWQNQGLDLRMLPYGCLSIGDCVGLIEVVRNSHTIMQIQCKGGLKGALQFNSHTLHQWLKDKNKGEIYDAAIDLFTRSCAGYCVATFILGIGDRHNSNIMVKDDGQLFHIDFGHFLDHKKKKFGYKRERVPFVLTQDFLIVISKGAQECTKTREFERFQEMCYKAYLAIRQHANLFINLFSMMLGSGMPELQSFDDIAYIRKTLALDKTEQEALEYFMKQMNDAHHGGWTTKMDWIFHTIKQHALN
UniProt O75116: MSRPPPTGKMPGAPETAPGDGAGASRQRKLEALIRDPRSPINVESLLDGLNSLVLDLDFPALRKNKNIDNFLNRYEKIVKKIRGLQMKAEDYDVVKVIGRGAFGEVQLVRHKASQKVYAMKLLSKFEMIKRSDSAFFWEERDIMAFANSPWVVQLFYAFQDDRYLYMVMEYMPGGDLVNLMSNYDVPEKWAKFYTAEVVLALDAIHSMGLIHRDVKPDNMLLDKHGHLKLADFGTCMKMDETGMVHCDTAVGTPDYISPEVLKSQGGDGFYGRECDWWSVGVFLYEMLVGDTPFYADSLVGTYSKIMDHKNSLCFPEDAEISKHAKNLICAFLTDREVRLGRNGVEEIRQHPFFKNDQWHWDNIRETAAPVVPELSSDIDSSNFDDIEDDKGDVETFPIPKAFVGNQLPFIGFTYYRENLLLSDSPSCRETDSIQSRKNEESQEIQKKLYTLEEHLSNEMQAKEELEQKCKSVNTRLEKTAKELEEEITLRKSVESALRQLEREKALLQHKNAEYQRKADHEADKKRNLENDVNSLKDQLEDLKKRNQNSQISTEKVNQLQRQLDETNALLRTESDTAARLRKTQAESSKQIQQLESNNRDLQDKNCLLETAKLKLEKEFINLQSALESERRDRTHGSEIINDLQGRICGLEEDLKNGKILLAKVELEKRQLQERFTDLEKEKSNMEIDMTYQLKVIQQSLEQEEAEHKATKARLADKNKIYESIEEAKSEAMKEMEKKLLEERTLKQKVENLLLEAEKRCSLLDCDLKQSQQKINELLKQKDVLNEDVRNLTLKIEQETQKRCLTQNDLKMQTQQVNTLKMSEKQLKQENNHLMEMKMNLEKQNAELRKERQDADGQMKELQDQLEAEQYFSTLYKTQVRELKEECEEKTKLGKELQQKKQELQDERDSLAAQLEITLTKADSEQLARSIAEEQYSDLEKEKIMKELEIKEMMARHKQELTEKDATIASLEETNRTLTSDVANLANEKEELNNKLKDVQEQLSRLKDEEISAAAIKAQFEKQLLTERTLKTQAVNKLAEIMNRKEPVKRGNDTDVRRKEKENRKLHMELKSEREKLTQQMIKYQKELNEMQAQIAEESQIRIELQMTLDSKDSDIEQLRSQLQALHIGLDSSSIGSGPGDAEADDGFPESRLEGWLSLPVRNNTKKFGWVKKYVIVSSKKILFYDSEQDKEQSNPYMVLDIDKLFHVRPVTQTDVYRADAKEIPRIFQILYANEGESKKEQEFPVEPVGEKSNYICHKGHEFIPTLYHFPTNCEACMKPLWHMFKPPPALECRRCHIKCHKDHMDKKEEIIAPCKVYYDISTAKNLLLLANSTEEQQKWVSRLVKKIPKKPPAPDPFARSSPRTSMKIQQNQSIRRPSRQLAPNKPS
UniProt Q16539, whole entry, looked up: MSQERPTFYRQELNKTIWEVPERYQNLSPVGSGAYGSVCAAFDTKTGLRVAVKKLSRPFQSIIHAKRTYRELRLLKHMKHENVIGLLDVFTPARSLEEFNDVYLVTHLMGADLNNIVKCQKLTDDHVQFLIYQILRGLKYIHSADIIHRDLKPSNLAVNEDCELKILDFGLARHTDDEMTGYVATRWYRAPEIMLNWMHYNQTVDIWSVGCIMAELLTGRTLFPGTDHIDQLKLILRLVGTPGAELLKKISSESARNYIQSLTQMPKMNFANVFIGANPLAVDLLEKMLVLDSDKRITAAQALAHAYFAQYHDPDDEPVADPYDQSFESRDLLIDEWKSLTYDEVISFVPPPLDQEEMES

In assay [1] the target is CDK2 (human) (UniProt P24941). The assay can be described thus: Enzyme Assay.
For assay [2], the target named is EGFR (human) (UniProt P00533). The conditions noted are these: a431.
Assay [3] has as its target PIK3CB (Human) (UniProt P42338).
The target in assay [4] is PIK3CG (Human), P48736 [Inhibition of PIK3CD Kinase Activity]. The assay can be described thus: Enzyme Assay.
Assay [5] has as its target PIK3CG (human) (UniProt P48736). Put plainly: Inhibition of PIK3CG Kinase Activity.
For assay [6] the target is unchanged. The assay can be described thus: Inhibition of PIK3CG Kinase Activity. This is another data set of the same source.
Assay [7] has as its target PIK3CA (human) (UniProt P42336). Put plainly: Assessment of Cell Proliferation in SK-BR3 Cells Using MTT Assay. The settings on record: skbr3.
Assay [8] shares this target. The assay can be described thus: Assessment of Cell Proliferation in T47D Cells Using MTT Assay. The settings on record: t-47d.
Assay [9] has the same target. The assay can be described thus: Inhibition of PIK3CA Kinase Activity.
For assay [10], the target named is CDK2 (UniProt P24941). Put plainly: Enzyme Assay.
Assay [11] has as its target EGFR (human) (UniProt P00533). The settings on record: a431. This is another data set of the same source.
Assay [12] deals with EGFR (UniProt P00533).
In assay [13] the target is PIK3CA (human) (UniProt P42336). The assay can be described thus: Enzyme Assay.
Assay [14] has as its target ROCK2 (human) (UniProt O75116). Put plainly: Assessment of ROCK2 Kinase Activity using IMAP Assay.
The target of assay [15] is CDK2 (human) (UniProt P24941).
Assay [16] concerns the target MAPK14 (human) (UniProt Q16539). Put plainly: Inhibition of MAPK14 Kinase Activity.
Assay [17] concerns the target EGFR (human) (UniProt P00533). The conditions noted are these: a431. This is another data set of the same source.
Assay [18] has as its target ROCK2 (human) (UniProt O75116). The assay can be described thus: Inhibition of ROCK2 Kinase Activity.
The target of assay [19] is MAPK14 (human) (UniProt Q16539). The assay can be described thus: Assessment of MAPK14 Kinase Activity.
Assay [20] concerns the target CDK2 (Human) (UniProt P24941).
Assay [21] has as its target CDK2 (Human) (UniProt P24941). This is another data set of the same source.
The target of assay [22] is EGFR (UniProt P00533). This is another data set of the same source.

For orientation: IC50 means the point on the concentration scale where inhibition reaches its midpoint. Higher therefore signals lower potency. Regarding `Cc1cc2c(=O)c(O)c(-c3ccc(O)c(O)c3)oc2c2c1CCCCC2`, the IC50 in assay [1] turned out to be 2600 nM.
For the compound `COc1cc2ncc(C#N)c(Nc3cccc(N(C)C)c3)c2cc1OC`, in [2], the IC50 worked out at 0.65 µg/mL (≈ 1.87 µM).
As for `O=c1cc(N2CCOCC2)oc2c(-c3ccccc3)cccc12`, the IC50 in assay [3] is 560 nM; in assay [4], 3020 nM; in [5], 10000 nM; in assay [6], 6500 nM.
Turning to `COc1ccc(-c2c[nH]c3ncc(-c4cnc(N)c(S(=O)(=O)N5CCOCC5)c4)cc23)cc1OC`, the half-inhibitory concentration (IC50) in [7] stood at 3700 nM; in [8], 700 nM; in assay [9] it was 16 nM.
`c1ccc(Nc2nc(OCC3CCCCC3)c3nc[nH]c3n2)cc1` had an IC50 in assay [10] of 1000 nM.
In assay [11], `CCOc1cc2ncc(C#N)c(Nc3ccc(OCc4ccccn4)c(Cl)c3)c2cc1NC(=O)/C=C/[C@@H]1CCCN1C` showed an IC50 of 22 nM.
In assay [12], `COc1cc2ncnc(Nc3cc(OC)c(OC)c(OC)c3)c2cc1OC` returned an IC50 of 500 nM.
With `COc1ncc(N2CCc3ncnc(N[C@H]4CCN(C(=O)[C@H]5CC[C@H](OC)CC5)C4)c3C2)cc1C(F)(F)F`, the IC50 in assay [13] came out at 113 nM.
Turning to `N[C@H]1CCc2nc(NC(=O)c3cccc(CNC(=O)c4csc(-c5ccncc5)n4)c3)sc2C1`, in assay [14], the IC50 amounted to 1.1 nM.
In assay [13], `COc1ncc(N2CCc3ncnc(N[C@H]4CCN(C(=O)[C@H]5CC[C@@H](OC)CC5)C4)c3C2)cc1C(F)(F)F` displayed a concentration for half-maximal inhibition (IC50) of 54 nM.
As to `NC1=NC(=O)/C(=C2\CCNC(=O)C3NC(Br)=CC23)N1` (stereo unspecified), the IC50 in assay [15] is 40 nM.
`Cc1ccc(C(=O)NC2CC2)cc1-c1cc2cnnc(-c3ccc(C(F)(F)F)cc3F)c2n(C)c1=O` returned a half-inhibitory concentration (IC50) in [16] of 2.9 nM.
`COc1cc2ncc(C#N)c(Nc3ccc(F)c(Cl)c3)c2cc1OC`: the 50% inhibitory concentration (IC50) in assay [17] turned out to be 1030 nM.
In assay [18], `O=C(Nc1nc(-c2ccncc2)cs1)N[C@H](CO)c1ccccc1` returned an IC50 of 10 nM.
`CC(C)Oc1nc(-c2ccc(NC(=O)Nc3ccc(C(=O)NC4CCN(C)CC4)cc3)cc2)nc(N2CCOCC2)n1` displayed an IC50 in [9] of 1.4 nM.
As to `Cc1ccc(C(=O)NC2CC2)cc1-c1cc2cnnc(-c3ccccc3C(F)(F)F)c2n(C)c1=O`, in assay [16], the concentration for half-maximal inhibition (IC50) was determined as 3.9 nM.
Turning to `CC[C@@H](NC(=O)c1cn2ncnc(Nc3cc(NC(=O)c4ccc(C#N)cc4)ccc3C)c2c1C)OC`, the half-inhibitory concentration (IC50) in [19] worked out at 16 nM.
Turning to `COc1ccccc1[C@@H]1C2=C(CC(C)(C)CC2=O)Nc2n[nH]c(C)c21`, the values for the IC50 in assay [20] and in [21] were 1500 nM and 2200 nM, respectively.
With `Clc1cccc(Nc2nc(OCC3CCCCC3)c3nc[nH]c3n2)c1`, the IC50 in assay [10] was determined as 2300 nM.
Consider `CC(C(=O)Nc1cc(C2CC2)[nH]n1)c1ccc(N2C(=O)CCC2=O)cc1` (stereo unspecified), for which the IC50 in assay [10] was 77 nM.
The compound `CNc1ccc2c(Nc3cccc(Br)c3)ncnc2c1` had a concentration for half-maximal inhibition (IC50) in [22] of 4 nM.
For the compound `CCOc1cc2ncc(C#N)c(Nc3ccc(OCc4ccccn4)c(Cl)c3)c2cc1NC(=O)/C=C/[C@H]1CCCN1C`, in assay [11], the IC50 turned out to be 45 nM.
In the case of `OCc1cccc(-c2nc(N3CCOCC3)c3cnn(C4CCNCC4)c3n2)c1`, the IC50 in assay [9] is 26 nM.
With `N#Cc1ccc(-c2ccc3c(c2)/C(=C/Nc2ccc(CN4CCCCC4)cc2)C(=O)NC3=O)cc1`, the IC50 in assay [1] stood at 26500 nM.
As to `Cc1ccc(C(N)=O)cc1-c1nnc2ccc(CCc3ccc(F)cc3F)cn12`, the IC50 in [16] stood at 40 nM.

Source of the values: the Kinase Knowledgebase extract (Sharma et al. 2016).
